Measurements from US12528818B2, “Compositions and methods for inhibition of RAS” (Leidos Biomedical Research, Inc., priority 2021, dated 2026).

Legend:
[1] = molecular target: Avi-KRAS G12C (1-169) GppNHp/RAF1 RBD-3xFLAG (52-151) (Homo sapiens, UniProt P01116, G12C); assay: biochemical; conditions: Raf1-GppNHp-KRAS G12C disruption, Raf1 RBD-KRAS G12C-GppNHp disruption assay IC50
[2] = molecular target: GDP-loaded KRAS4b (amino acids 1-169) G12C/C118S protein (Homo sapiens, UniProt P01116, C118S/G12C); assay: Covalent cysteine 12 modification by MALDI-TOF MS, GDP-loaded KRAS G12C; format: biochemical; conditions: 15 minutes reaction time
[3] = molecular target: GppNHp-loaded KRAS4b (amino acids 1-169) G12C/C118S protein (Homo sapiens, UniProt P01116, C118S/G12C); assay: Covalent cysteine 12 modification by MALDI-TOF MS, GppNHp-loaded KRAS G12C; format: biochemical; conditions: 15 minutes reaction time
[4] = compound 95 or later using 1 μM proteins
[5] = compounds 94 or before using 5 μM proteins

SMILES | IC50 [1] [nM] | GDP-KRAS G12C percent of modification [2, 4] | GppNHp-KRAS G12C percent of modification [3, 4] | GDP-KRAS G12C percent of modification [2, 5] | GppNHp-KRAS G12C percent of modification [3, 5]
C=CC(=O)N1CCN(c2nc(OC[C@@H]3CCCN3C)nc3c(F)c(-c4ccc(F)c5sc(N)nc45)c(C(F)F)cc23)CC1 [Compound 211] | 5000 to 20000 | A (percent of modification ≥70%) | D (percent of modification <10%) | – | –
CC#CC(=O)N1CCN(c2nc(OC[C@]34CCCN3C[C@H](F)C4)nc3c(F)c(-c4ccc(F)c5sc(N)nc45)c(C(F)(F)F)cc23)CC1 [Compound 149] | 500 to 5000 | B (50≤percent of modification <70%) | D (percent of modification <10%) | – | –
C=CC(=O)N1CCN(c2ncnc3c(F)c(-c4ccc(F)c5sc(N)nc45)c(Cl)c(OC)c23)CC1 [Compound 82] | > 20000 | – | – | A (percent of modification ≥70%) | D (percent of modification <10%)
C=CC(=O)N1CC[C@@H]2[C@H]1CN2c1nc(OC[C@@H]2C[C@@H](F)CN2C)nc2c(F)c(-c3ccc(F)c4sc(N)nc34)c(Cl)cc12 [Compound 89] | 500 to 5000 | – | – | A (percent of modification ≥70%) | C (10%≤percent of modification <50%)
C=CC(=O)N1CC(Nc2nc(O[C@@H]3CN(C)C[C@H]3OC)nc3c(F)c(-c4ccc(F)c5sc(N)nc45)c(Cl)cc23)C1 [Compound 31] | 500 to 5000 | – | – | A (percent of modification ≥70%) | B (50≤percent of modification <70%)
C=CC(=O)N1CCN(c2nc(OC[C@@]34CCCN3C[C@H](F)C4)nc3c(F)c(-c4ccc(F)c5sc(N)nc45)c(C(F)(F)F)cc23)CC1 [Compound 194] | < 500 | A (percent of modification ≥70%) | C (10%≤percent of modification <50%) | – | –
C=C(F)C(=O)N1CCN(c2nc(OC[C@]34CCCN3C[C@H](F)C4)nc3c(F)c(-c4ccc(F)c5sc(N)nc45)c(C(F)(F)F)cc23)[C@H](C)C1 [Compound 199] | > 20000 | B (50≤percent of modification <70%) | D (percent of modification <10%) | – | –
C=CC(=O)N1CCC(N(C)c2nc(OC[C@]34CCCN3C[C@H](F)C4)nc3c(F)c(-c4ccc(F)c5sc(N)c(C#N)c45)c(C(F)(F)F)cc23)[C@H]1C (some centres unmarked) [Compound 477] | < 500 | A (percent of modification ≥70%) | B (50≤percent of modification <70%) | – | –
C=CC(=O)N1CC(Nc2nc(OC[C@@H]3C[C@@H](F)CN3C)nc3c(F)c(-c4ccc(F)c5sc(N)nc45)c(Cl)cc23)C1 [Compound 63] | < 500 | – | – | A (percent of modification ≥70%) | A (percent of modification ≥70%)
C=CC(=O)N1C[C@@H](N(C)c2nc(OC[C@@]34CCCN3C[C@H](F)C4)nc3c(F)c(-c4ccc(F)c5sc(N)nc45)c(C(F)(F)F)cc23)C(C)(C)C1 [Compound 283] | 500 to 5000 | A (percent of modification ≥70%) | D (percent of modification <10%) | – | –
C=CC(=O)N1CCN(c2nc(OCC34CCCN3CCC4)nc3c(F)c(-c4ccc(F)c5sc(N)nc45)c(C(F)(F)F)cc23)CC1 [Compound 80, 1-(4-(7-(2-amino-7-fluorobenzo[d]thiazol-4-yl)-8-fluoro-2-((tetrahydro-1H-pyrrolizin-7a(5H)-yl)methoxy)-6-(trifluoromethyl)quinazolin-4-yl)piperazin-1-yl)prop-2-en-1-one] | < 500 | – | – | A (percent of modification ≥70%) | A (percent of modification ≥70%)
C=CC(=O)N1CC[C@@H](N(C)c2nc(OC[C@@]34CCCN3C[C@H](F)C4)nc3c(F)c(-c4ccc(F)c5sc(N)nc45)c(OC(F)(F)F)cc23)C1 [Compound 238, 1-((3R)-3-((7-(2-amino-7-fluorobenzo[d]thiazol-4-yl)-8-fluoro-2-(((2R,7aS)-2-fluorotetrahydro-1H-pyrrolizin-7a(5H)-yl)methoxy)-6-(trifluoromethoxy)quinazolin-4-yl)(methyl)amino)pyrrolidin-1-yl)prop-2-en-1-one] | < 500 | A (percent of modification ≥70%) | B (50≤percent of modification <70%) | – | –
C=CC(=O)N1C[C@@H](Nc2nc(OCC34CCCN3CCC4)nc3c(F)c(-c4ccc(F)c5sc(N)nc45)c(Cl)cc23)[C@H]1C [Compound 197] | < 500 | C (10%≤percent of modification <50%) | C (10%≤percent of modification <50%) | – | –
C=CC(=O)N1CC(Nc2nc(C3CCN(C)CC3)nc3c(F)c(-c4ccc(F)c5sc(N)nc45)c(Cl)cc23)C1 [Compound 60] | 500 to 5000 | – | – | A (percent of modification ≥70%) | B (50≤percent of modification <70%)
C=CC(=O)N1CCN(c2nc(OC[C@@H]3CCCN3C)nc3c(F)c(-c4ccc(F)c5sc(N)nc45)c(Cl)cc23)CC1 [Compound 44] | 500 to 5000 | – | – | A (percent of modification ≥70%) | C (10%≤percent of modification <50%)
C=CC(=O)N1CCN(c2nc(OC[C@@H]3CCCN3CC(F)F)nc3c(F)c(-c4ccc(F)c5sc(N)nc45)c(C(F)(F)F)cc23)CC1 [Compound 156] | > 20000 | C (10%≤percent of modification <50%) | D (percent of modification <10%) | – | –
C=CC(=O)NC1CN(c2nc(OC[C@@H]3CCCN3C)nc3c(F)c(-c4ccc(F)c5sc(N)nc45)c(Cl)cc23)C1 [Compound 74] | 5000 to 20000 | – | – | A (percent of modification ≥70%) | C (10%≤percent of modification <50%)
C#Cc1cc2c(N3CCN(C(=O)C=C)CC3)ncnc2c(F)c1-c1ccc(F)c2sc(N)nc12 [Compound 34] | > 20000 | – | – | A (percent of modification ≥70%) | D (percent of modification <10%)
C=CC(=O)N1CC(N(C)c2nc(OC[C@@]34CCCN3C[C@H](F)C4)nc3c(F)c(-c4ccc(F)c5sc(N)nc45)c(C(F)(F)F)cc23)C1 [Compound 223] | < 500 | A (percent of modification ≥70%) | B (50≤percent of modification <70%) | – | –
C=CC(=O)N1CC[C@@H](N(C)c2nc(OC[C@@H]3C[C@@H](F)CN3C)nc3c(F)c(-c4ccc(F)c5sc(N)nc45)c(C(F)(F)F)cc23)C1 (atropisomer, axis not shown) [Compound 232] | 500 to 5000 | D (percent of modification <10%) | D (percent of modification <10%) | – | –
C=CC(=O)N1CC(Nc2nc(OC[C@@H]3C[C@@H](F)CN3C)nc3c(F)c(-c4ccc(F)c5sc(N)nc45)c(-c4ccoc4)cc23)C1 [Compound 95] | < 500 | A (percent of modification ≥70%) | A (percent of modification ≥70%) | – | –
C=CC(=O)N1CC[C@@H](N(c2nc(OC[C@@]34CCCN3C[C@H](F)C4)nc3c(F)c(-c4ccc(F)c5sc(N)nc45)c(C(F)(F)F)cc23)C2CC2)C1 (single isomer, unassigned) [Compound 237] | 500 to 5000 | D (percent of modification <10%) | D (percent of modification <10%) | – | –
C=CC(=O)N1CC[C@@H](N(C)c2nc(OC[C@@H]3CCCN3CC)nc3c(F)c(-c4ccc(F)c5sc(N)c(C#N)c45)c(C(F)(F)F)cc23)[C@H]1C (atropisomer, axis not shown) [Compound 451] | < 500 | – | – | – | –
C=CC(=O)N1CCC(N(C)c2nc(OC[C@@H]3CC4(CC4)CN3C)nc3c(F)c(-c4ccc(F)c5sc(N)c(C#N)c45)c(C(F)(F)F)cc23)[C@H]1C (some centres unmarked) [Compound 409] | < 500 | – | – | – | –
C=CC(=O)N1CC[C@@H](N(C)c2ncnc3c(F)c(-c4ccc(F)c5sc(N)c(C#N)c45)ccc23)[C@H]1C [Compound 462] | 500 to 5000 | – | – | – | –
C=CC(=O)N1CC[C@@H](N(C)c2nc(OC[C@@H]3CCCN3CC)nc3c(F)c(-c4ccc(F)c5sc(N)c(C#N)c45)c(Cl)cc23)[C@H]1C (atropisomer, axis not shown) [Compound 464] | 500 to 5000 | – | – | – | –
C=CC(=O)N1CC(Nc2nc(OC[C@H]3CCCN3CCC#N)nc3c(F)c(-c4ccc(F)c5sc(N)nc45)c(Cl)cc23)C1 [Compound 160] | 5000 to 20000 | – | – | – | –
